# Source: patent publication US11655492B2, “Activated formylglycine-generating enzymes and methods of producing and using the same” (R.P. Scherer Technologies, LLC, priority 2015, dated 2023)
# Protein sequences, listed by entry. Tags and fused reporters are not part of them. Lines headed by an entry give the natural chain unless they say otherwise; changes in a name come on top.
# UniProt Q9F3C7: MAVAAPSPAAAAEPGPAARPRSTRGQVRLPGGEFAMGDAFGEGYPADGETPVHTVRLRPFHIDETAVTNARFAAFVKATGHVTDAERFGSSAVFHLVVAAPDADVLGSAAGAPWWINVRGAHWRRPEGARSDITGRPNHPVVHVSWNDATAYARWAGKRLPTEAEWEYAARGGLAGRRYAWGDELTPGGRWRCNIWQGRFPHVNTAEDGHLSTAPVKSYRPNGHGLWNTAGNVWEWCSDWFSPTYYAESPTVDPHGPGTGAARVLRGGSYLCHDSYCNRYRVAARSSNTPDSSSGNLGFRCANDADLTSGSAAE
# Entries after “also recorded” stand apart in the source; their conditions may differ.
# Tests used:
# Sc-FGE = Sc-FGE (Streptomyces coelicolor, UniProt Q9F3C7); format: biochemical, S. coelicolor
# recombinant human FGE = target: T1, recombinant human FGE (Homo sapiens, UniProt Q8NBK3); assay: In vivo conversion in CHO cells expressing recombinant human FGE and αHER2 mAb, additives in culture medium
# T1 sequence (Q8NBK3 34-374): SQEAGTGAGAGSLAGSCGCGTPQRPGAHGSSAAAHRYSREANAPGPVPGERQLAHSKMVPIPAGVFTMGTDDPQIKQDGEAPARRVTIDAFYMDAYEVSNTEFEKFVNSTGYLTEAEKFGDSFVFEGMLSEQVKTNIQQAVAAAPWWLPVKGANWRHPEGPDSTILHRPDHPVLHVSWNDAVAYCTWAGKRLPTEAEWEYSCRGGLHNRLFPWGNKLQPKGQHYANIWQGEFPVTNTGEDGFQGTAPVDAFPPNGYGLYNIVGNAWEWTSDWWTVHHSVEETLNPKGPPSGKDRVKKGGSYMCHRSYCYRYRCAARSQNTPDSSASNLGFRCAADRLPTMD
# [1] = target: S. coelicolor (“Sc”) FGEs (Streptomyces coelicolor, UniProt Q9F3C7)
# FGE = target: T2, FGE (Homo sapiens, UniProt Q8NBK3); assay: FGE reaction mixtures with reductants or additives (product formation); format: biochemical
# T2 construct: made in house
# T2 sequence (Q8NBK3 with tags, fused parts or gaps isoform Q8NBK3-4): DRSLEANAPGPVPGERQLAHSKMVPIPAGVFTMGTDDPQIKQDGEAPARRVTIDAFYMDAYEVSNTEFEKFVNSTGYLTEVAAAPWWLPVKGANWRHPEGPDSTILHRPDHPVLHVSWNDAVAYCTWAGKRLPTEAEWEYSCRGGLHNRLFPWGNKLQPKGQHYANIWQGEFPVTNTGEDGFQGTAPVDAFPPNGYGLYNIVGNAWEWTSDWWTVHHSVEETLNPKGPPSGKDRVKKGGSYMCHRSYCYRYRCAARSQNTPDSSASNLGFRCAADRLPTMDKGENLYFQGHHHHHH
structure (smiles),measurement,setting,value
"O=S(=O)([O-])[O-].[Cu+2] [Cu^2+, copper(II) sulfate]",effect of pretreatment on specific activity,Sc-FGE,significantly increased
same,effect of treatment on specific activity,Sc-FGE,increased specific activity
same,effect on conversion,recombinant human FGE,increased conversion; also recorded: improved conversion; also recorded: same effect on conversion as 50 μM
same,conversion,[1],enhanced
same,effect on product formation when added directly to the reaction,FGE,significantly inhibited
